Sequences of proteins named here, by UniProt entry; tags and fusion partners are left off. A change or cut given only in a name is not applied to a line headed by its entry.
UniProt O42275: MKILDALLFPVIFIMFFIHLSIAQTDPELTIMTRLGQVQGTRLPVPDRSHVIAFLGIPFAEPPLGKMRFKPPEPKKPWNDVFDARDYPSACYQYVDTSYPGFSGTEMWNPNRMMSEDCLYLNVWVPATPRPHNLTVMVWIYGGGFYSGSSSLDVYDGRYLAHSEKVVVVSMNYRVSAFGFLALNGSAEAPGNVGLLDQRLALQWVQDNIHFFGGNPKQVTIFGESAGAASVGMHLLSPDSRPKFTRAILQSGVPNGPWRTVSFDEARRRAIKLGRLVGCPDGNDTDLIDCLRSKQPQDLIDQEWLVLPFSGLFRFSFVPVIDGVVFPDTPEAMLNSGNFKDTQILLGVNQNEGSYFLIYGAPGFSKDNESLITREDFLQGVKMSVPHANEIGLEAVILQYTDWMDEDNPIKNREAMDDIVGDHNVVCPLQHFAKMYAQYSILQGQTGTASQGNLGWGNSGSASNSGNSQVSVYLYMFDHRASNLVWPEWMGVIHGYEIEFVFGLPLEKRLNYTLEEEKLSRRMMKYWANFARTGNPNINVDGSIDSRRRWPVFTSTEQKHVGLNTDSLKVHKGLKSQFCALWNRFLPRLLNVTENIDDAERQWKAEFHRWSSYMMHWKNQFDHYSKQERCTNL
UniProt P22303: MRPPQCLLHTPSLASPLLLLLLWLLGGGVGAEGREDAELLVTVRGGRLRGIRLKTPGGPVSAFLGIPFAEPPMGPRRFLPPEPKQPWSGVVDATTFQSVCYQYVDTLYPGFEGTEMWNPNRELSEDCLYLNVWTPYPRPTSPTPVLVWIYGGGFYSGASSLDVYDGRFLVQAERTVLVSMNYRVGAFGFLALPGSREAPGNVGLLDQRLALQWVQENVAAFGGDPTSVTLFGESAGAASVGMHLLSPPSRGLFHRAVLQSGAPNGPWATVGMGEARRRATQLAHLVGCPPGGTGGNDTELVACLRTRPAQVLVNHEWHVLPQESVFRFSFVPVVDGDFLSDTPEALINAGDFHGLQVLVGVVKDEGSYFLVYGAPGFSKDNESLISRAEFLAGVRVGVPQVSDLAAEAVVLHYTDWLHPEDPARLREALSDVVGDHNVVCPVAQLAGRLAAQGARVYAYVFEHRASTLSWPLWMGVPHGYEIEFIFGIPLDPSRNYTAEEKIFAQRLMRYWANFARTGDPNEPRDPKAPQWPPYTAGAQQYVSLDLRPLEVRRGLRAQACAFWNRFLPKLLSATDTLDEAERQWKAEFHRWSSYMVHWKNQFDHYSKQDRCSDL

In ChEMBL document CHEMBL5390232, “Discovery of (E)-2-(hydroxyimino)-N-(2 ((4methylpentyl)amino)ethyl)acetamide (KR-27425) as a non-pyridinium oxime reactivator of paraoxon-inhibited acetylcholinesterase” (2023):

Key:
Parameters in all cases: scale not given: the % may be the effect or the level left
[1] = molecular target: Acetylcholinesterase (Electrophorus electricus) (UniProt O42275); test: Reactivation of paraoxon-inhibited electric eel AChE at 100 uM incubated for 1 hr relative to control
[2] = molecular target: Acetylcholinesterase (Electrophorus electricus) (UniProt O42275); test: Reactivation of paraoxon-inhibited electric eel AChE at 1000 uM incubated for 1 hr relative to control
[3] = molecular target: Acetylcholinesterase (Electrophorus electricus) (UniProt O42275); test: Reactivation of paraoxon-inhibited electric eel AChE at 10 uM incubated for 1 hr relative to control
[4] = molecular target: Acetylcholinesterase (Homo sapiens) (UniProt P22303); test: Reactivation of paraoxon-inhibited human AChE at 10 uM incubated for 1 hr by spectrophotometry method relative to control
[5] = molecular target: Acetylcholinesterase (Homo sapiens) (UniProt P22303); test: Reactivation of paraoxon-inhibited human AChE at 100 uM incubated for 1 hr by spectrophotometry method relative to control
[6] = molecular target: Acetylcholinesterase (Homo sapiens) (UniProt P22303); test: Reactivation of paraoxon-inhibited human AChE at 1000 uM incubated for 1 hr by spectrophotometry method relative to control

SMILES | Activity [1] | Activity [2] | Activity [3] | Activity ([1]; filed as activator) | Activity [4] | Activity [5] | Activity ([2]; filed as activator) | Activity [6]
O=C(/C=N/O)NCCCN1CCCCCC1 | 18% | 32% | 1% | – | – | – | – | –
O=C(/C=N/O)NC1CCCCC1 | 3% | 11% | 1% | – | – | – | – | –
CC(C)CCCNCCNC(=O)/C=N/O | – | – | 6% | 60% | 2% | 7% | 67% | 10%
CN(C)CCNC(=O)/C=N/O | 12% | 25% | 1% | – | – | – | – | –
COc1ccc(/C(C)=N/O)cc1CN1CCOCC1 | 1% | 5% | 0% | – | – | – | – | –
O=C(/C=N/O)Nc1ccc(Cl)cc1C(F)(F)F | 3% | 10% | 1% | – | – | – | – | –
O/N=C/c1ccc(OCc2ccc(Cl)cc2Cl)cc1 | 3% | 7% | 1% | – | – | – | – | –
Cc1ccc(NC(=O)/C=N/O)c(C)c1 | 1% | 8% | 0% | – | – | – | – | –
C/C(=N\O)c1ccc(S(=O)(=O)C2CCCC2)cc1 | 2% | 10% | 0% | – | – | – | – | –
CCN(CCCNC(=O)/C=N/O)Cc1ccccc1 | 10% | 18% | 0% | – | – | – | – | –
O=C(COc1ccc(/C=N/O)cc1)N1CCOCC1 | 1% | 9% | 0% | – | – | – | – | –
O=C(NCCCNC1CCCCC1)c1ccc(/C=N/O)nc1 | 5% | 8% | 0% | – | – | – | – | –
C/C(=N\O)c1cccc(OCC(=O)N2CCOCC2)c1 | 3% | 7% | 0% | – | – | – | – | –
O=C(/C=N/O)Nc1ccccc1 | 3% | 11% | 1% | – | – | – | – | –
O=C(/C=N/O)Nc1cc(C(F)(F)F)cc(C(F)(F)F)c1 | 2% | 7% | 1% | – | – | – | – | –
